AlphaSeq binding of Ab-14 heavy chain variants to a spike HR2 peptide

The target is the same throughout: PDVDLGDISGINAS, from the HR2 region of SARS-CoV-2 spike.

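The starting antibody came from a phage panning campaign against this peptide. AAYL49 was designed without a model: most single CDR substitutions and a random sample of double and triple ones. The scFvs were displayed on barcoded MATa yeast, the peptide on MATalpha yeast. Binding brings cells together so that they mate, and sequencing counts the barcode pairs among the diploids. Read counts were normalised to the haploid input and turned into Kd by a linear fit to BCL2-family pairs of known affinity, for each replicate. Each pool was mated in three replicate cultures.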

Each scFv is VH, the linker GGGGSGGGGSGGGGS, VL, as in the parent Ab-14, and differs from it in the CDRs of the heavy chain only.
VH: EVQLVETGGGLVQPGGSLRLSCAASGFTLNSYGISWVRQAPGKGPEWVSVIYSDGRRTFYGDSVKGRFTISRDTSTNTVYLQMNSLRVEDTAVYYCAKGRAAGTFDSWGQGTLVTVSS
VL: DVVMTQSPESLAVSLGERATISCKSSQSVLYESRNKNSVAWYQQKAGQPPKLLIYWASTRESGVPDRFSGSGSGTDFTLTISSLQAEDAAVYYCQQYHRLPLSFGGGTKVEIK

Positions count from residue 1 of the parent VH; F27N puts N in place of F.
Numbers give log10(Kd / nM), so 0 is 1 nM and 3 is 1 µM. Smaller is tighter.
Replicates are averaged; those with no signal do not enter the mean.
A pair that was not seen in any replicate is written "nd"; this usually means weak binding, but a binder can also be missed.
Empty control strains, which show no peptide, gave a signal in 15% of pairings with library AAYL49; the median was 4.06 and 95% of these signals were weaker than 2.83. No background was subtracted. The control count says in how many pairings with the empty strains this scFv gave a signal.
For reference, the parent read 0.65 as the reference entry and 4.11 (one replicate of three) as a member of this library.

Result 3.41 (1 of 3 replicates; controls 1 of 9), variant F27N K65G T104W.
Result 2.94 (3 of 3 replicates; controls 7 of 9), variant V50I G99T D106K.
Result nd (0 of 3 replicates; controls 2 of 9), variant F27M I34N S35E.
Result 4.97 (1 of 3 replicates; controls 1 of 9), variant N30Q D54F V64G.
Result nd (0 of 3 replicates; controls 0 of 9), variant S31L S35D V64W.
Result nd (0 of 3 replicates; controls 1 of 9), variant R56S A101D D106C.
Result 4.36 (3 of 3 replicates; controls 6 of 9), variant Y32K S63D.
Result 4.91 (2 of 3 replicates; controls 0 of 9), variant L29M F59R V64K.
Result nd (0 of 3 replicates; controls 0 of 9), variant N30S F59K Y60P.
Result nd (0 of 3 replicates; controls 2 of 9), variant G33W G55W G103W.
Result nd (0 of 3 replicates; controls 0 of 9), variant I51G S53Y K65T.
Result nd (0 of 3 replicates; controls 0 of 9), variant G33L I34P I51P.
Result 4.75 (1 of 3 replicates; controls 4 of 9), variant G99E R100I F105V.
Result 5.94 (1 of 3 replicates; controls 1 of 9), variant T58W G99S S107E.
Result 4.43 (1 of 3 replicates; controls 2 of 9), variant F27H V50G G55D.
Result 4.61 (2 of 3 replicates; controls 6 of 9), variant F27S R56F G99W.
Result nd (0 of 3 replicates; controls 0 of 9), variant I51Y S63I A101R.
Result nd (0 of 3 replicates; controls 2 of 9), variant K65C G99Q G103E.
Result 4.20 (1 of 3 replicates; controls 3 of 9), variant L29G Y52F F59N.
Result 4.01 (3 of 3 replicates; controls 1 of 9), variant F27L T58W V64T.
Result nd (0 of 3 replicates; controls 2 of 9), variant V50C Y60Q S107P.
Result 4.70 (2 of 3 replicates; controls 5 of 9), variant T28H N30A D54M.
Result 3.39 (1 of 3 replicates; controls 0 of 9), variant G26V V64D F105C.
Result nd (0 of 3 replicates; controls 0 of 9), variant I34G S35K G61Y.
Result nd (0 of 3 replicates; controls 0 of 9), variant Y60Q V64T K65I.
Result 3.27 (1 of 3 replicates; controls 1 of 9), variant Y52D G55P R57Y.
Result 4.12 (3 of 3 replicates; controls 8 of 9), variant N30Q Y32V G61N.
Result nd (0 of 3 replicates; controls 2 of 9), variant I34Q I51N S53G.
Result nd (0 of 3 replicates; controls 0 of 9), variant G26Y V50R F59V.
Result nd (0 of 3 replicates; controls 0 of 9), variant S53C D62Y.
Result 4.59 (1 of 3 replicates; controls 2 of 9), variant G26T V50W F105A.

The measurements come from Engelhart et al. 2022 (doi:10.1038/s41597-022-01779-4) through the FLAb antibody collection.